The text below walks through data of patent US9914723B2, “Small molecule inhibitors of Mcl-1 and uses thereof” (THE REGENTS OF THE UNIVERSITY OF MICHIGAN, priority 2012, dated 2018).

Amino acid sequences for entries named in this document (tags omitted).
UniProt Q07820, whole entry: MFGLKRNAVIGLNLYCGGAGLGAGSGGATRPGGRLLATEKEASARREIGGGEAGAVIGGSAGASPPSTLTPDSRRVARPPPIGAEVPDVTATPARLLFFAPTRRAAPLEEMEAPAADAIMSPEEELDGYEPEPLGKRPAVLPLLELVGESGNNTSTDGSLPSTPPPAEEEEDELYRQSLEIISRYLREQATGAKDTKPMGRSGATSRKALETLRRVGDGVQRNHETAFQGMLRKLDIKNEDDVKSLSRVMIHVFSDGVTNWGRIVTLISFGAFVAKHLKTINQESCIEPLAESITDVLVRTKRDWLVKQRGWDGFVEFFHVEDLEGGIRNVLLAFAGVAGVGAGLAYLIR
UniProt Q16548, whole entry: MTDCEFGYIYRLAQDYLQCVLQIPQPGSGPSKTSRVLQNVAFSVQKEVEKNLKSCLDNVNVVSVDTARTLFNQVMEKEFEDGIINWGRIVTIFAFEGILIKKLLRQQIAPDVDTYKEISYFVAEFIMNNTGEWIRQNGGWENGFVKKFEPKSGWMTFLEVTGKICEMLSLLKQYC
UniProt Q92843, whole entry: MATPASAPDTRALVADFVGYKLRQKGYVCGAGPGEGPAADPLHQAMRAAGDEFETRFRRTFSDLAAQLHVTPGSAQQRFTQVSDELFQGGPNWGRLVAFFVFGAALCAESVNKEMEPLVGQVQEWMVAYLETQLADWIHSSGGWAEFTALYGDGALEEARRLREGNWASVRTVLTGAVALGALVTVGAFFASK
UniProt P10415, whole entry: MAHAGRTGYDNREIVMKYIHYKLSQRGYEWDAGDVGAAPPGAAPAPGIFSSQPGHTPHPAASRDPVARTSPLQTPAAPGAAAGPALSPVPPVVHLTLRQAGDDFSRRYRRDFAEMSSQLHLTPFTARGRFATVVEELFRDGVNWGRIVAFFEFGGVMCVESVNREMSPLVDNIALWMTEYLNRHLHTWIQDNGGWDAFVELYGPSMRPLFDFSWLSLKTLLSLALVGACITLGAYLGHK
UniProt Q07817, whole entry: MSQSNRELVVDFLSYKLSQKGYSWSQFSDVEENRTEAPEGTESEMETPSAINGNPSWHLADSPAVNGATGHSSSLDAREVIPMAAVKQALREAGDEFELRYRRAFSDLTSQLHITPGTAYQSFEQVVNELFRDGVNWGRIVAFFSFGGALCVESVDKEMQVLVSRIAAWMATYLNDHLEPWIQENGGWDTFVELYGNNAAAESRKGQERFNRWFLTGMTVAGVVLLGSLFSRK

SMILES strings stand for the structures.

The target in assay [1] is T1, Mcl-1 (Homo sapiens, UniProt Q07820). Put plainly: Binding affinity against Bcl-2 family anti-apoptotic proteins: Mcl-1. To be noted: read-out: Mcl-1 Ki.
The next assay concerns the target A1 (Homo sapiens, UniProt Q16548). Put plainly: Binding affinity against Bcl-2 family anti-apoptotic proteins: A1. Conditions: read-out: A1 Ki.
The target in a further assay is Bcl-w (Homo sapiens, UniProt Q92843). Put plainly: Binding affinity against Bcl-2 family anti-apoptotic proteins: Bcl-w. To be noted: read-out: Bcl-w Ki.
For another assay, the target named is Bcl-2 (Homo sapiens, UniProt P10415). Put plainly: Binding affinity against Bcl-2 family anti-apoptotic proteins: Bcl-2. To be noted: read-out: Bcl-2 Ki.
Another assay concerns the target Bcl-xL (Homo sapiens, UniProt Q07817). The assay can be described thus: Binding affinity against Bcl-2 family anti-apoptotic proteins: Bcl-xL. Conditions: read-out: Bcl-xL Ki.
The target in assay [2] is T1, Mcl-1. Put plainly: fluorescence polarizing binding assay, binding to Mcl-1.

As for `CCOC(=O)c1c(C(C)(C)C)oc2c1c(C(c1ccncc1)N1CCN(C)CC1)c(O)c1ccccc12` (stereo not shown), the Ki (usually a measure of affinity in units of concentration, obtained from inhibition or displacement) on Mcl-1 [1] was 0.12 µM; on A1, more than 25 µM; on Bcl-w, 33 µM; on Bcl-2, more than 30 µM; at Bcl-xL, more than 30 µM.

Take `CCOC(=O)c1c(C)oc2c1c(C(OC)c1ccncc1)c(O)c1ccccc12` (stereo not shown): on Mcl-1 [2] (in comparison with UMI-1033), the “fold decrease of binding affinity to Mcl-1” value turned out to be 125 fold. Besides, at Mcl-1 [2] (read-out: IC50 for binding to Mcl-1, fluorescence polarizing binding assay), the concentration for half-maximal inhibition (IC50) (in general, the concentration needed to halve the response being measured) stood at 9.35 µM.
